# Values of other authors, collected in US10058550B2, “Methods of treating heart failure” (priority 2015, dated 2018).
# Conditions: cited from earlier work
substance,measurement,value
Apelin-13,plasma half-life,< 5 min
